Yeast mating assay B: variants of the scFv Ab-14

The measurements come from Li et al. 2023 (doi:10.1038/s41467-023-39022-2) through the FLAb antibody collection.

Target: peptide PDVDLGDISGINAS, taken from heptad repeat 2 (HR2) of SARS-CoV-2 spike.

Parent: Ab-14, a human scFv built as VH, three GGGGS repeats, VL. Only the CDRs of the heavy chain vary.
VH: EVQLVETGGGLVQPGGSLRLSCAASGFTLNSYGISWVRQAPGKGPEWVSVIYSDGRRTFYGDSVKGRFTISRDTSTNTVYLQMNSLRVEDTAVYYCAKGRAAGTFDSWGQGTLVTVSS
VL: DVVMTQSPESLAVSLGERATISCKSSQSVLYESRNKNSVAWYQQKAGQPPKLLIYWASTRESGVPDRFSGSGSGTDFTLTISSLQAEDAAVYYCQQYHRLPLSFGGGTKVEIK

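The starting antibody came from a phage panning campaign against this peptide. These sequences belong to a second round, designed from the earlier measurements on random variants of the parent. Several design methods are mixed in this list. The assay is AlphaSeq: two haploid yeast populations carry antibody and antigen on their surface. Binding brings cells together so that they mate, and sequencing counts the barcode pairs among the diploids. Read counts were normalised to the haploid input and turned into Kd by a linear fit to BCL2-family pairs of known affinity, for each replicate. The assay was run in six technical replicates.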

Each variant is given by its three heavy chain CDRs, as the data file delimits them; those of the parent are GFTLNSYGIS, VIYSDGRRTFYGDSVK, GRAAGTFDS.
Values are log10 of the apparent Kd in nM; lower means stronger binding.
"n.d." means that the variant was in the library but no mating with the target was seen in that replicate; the authors take this as a sign of poor binding, and no number exists.
The authors averaged sequences with at least three values out of six and counted those with two or fewer as poor binders.

CDR-H1 | CDR-H2 | CDR-H3 | log10 Kd, replicates
GFQLNSYGIS | VIYSDGRRTFYGDQVK | GRTAGTFDQ | 0.19 0.11 0.55 0.43 0.60 0.62
GFTLDSYGIS | VIYSDGRRTFYGDSVK | GQAAGTFDR | n.d. 0.68 0.87 0.43 1.74 1.34
GFELNSYGIS | VIYADGRRTFYGDSVK | GEAAGTFDF | 0.20 0.06 0.09 -0.33 0.12 -0.22
GFTLNSHGIS | VKYADGRRHFYGDSVK | GEAAGTKKS | n.d. n.d. n.d. n.d. n.d. n.d.
GFTLESYGIS | VIYSDGRRTFYGDGVK | GREAGTFDT | n.d. n.d. n.d. 0.72 0.69 n.d.
GFTLNSYGIS | VIYADGRRTFYADSVK | GEAAGTFDS | -0.39 -0.33 -0.45 -0.46 -0.27 -0.02
GFNLNSYGIS | VIYSDGRRTFYTDSVK | GQTAGTFDS | 0.88 0.42 0.44 0.79 0.34 0.10
GFKLNSYGIS | VIYSDGRRTFYTDSVK | GKAAGTFDS | n.d. 2.93 0.91 n.d. n.d. n.d.
GFHLNSYGIS | VIYSDGRRTFYGDDVK | GRAAGTFDD | n.d. 2.22 n.d. n.d. n.d. n.d.
GFDLNEYGIS | VIYADGRRTYYADSVK | GNVAGTFDI | -0.45 -0.02 -0.74 -0.68 -0.33 -0.34
GFTLFQYGIS | VIYSDGRRTFYSDSVK | GRAAGFFDS | n.d. 1.53 1.18 1.18 n.d. 0.74
GFSLNSYGIS | VIYSDGRRTFYADSVK | GMTAGTFDS | -0.15 -0.02 -0.52 -0.14 -0.60 -0.39
GFDLEEYGIS | VIYADGMRTAYADDVK | GNNAGTFDV | n.d. n.d. n.d. 1.62 n.d. 1.97
GFTLNQYGIS | VIYSDGRRTFMGDSVK | GRAAGTFDS | n.d. n.d. n.d. n.d. n.d. n.d.
GFDLNEYGIS | VIYADGRRTAYDDSVK | GQVAGTFDV | -0.37 -0.58 -0.60 -0.84 -0.39 -0.45
GEQLDEYGIS | VIYADGRKQYYANSVK | GDSADGFDL | n.d. n.d. n.d. n.d. n.d. n.d.

Second part, the sequence after the result:

log10 Kd, replicates | CDR-H1 | CDR-H2 | CDR-H3
0.26 0.16 -0.14 -0.22 0.02 0.05 | GFSLNEYGIS | VIYSDGRRTFYGDSVK | GRLAGTFDS
n.d. 1.91 n.d. 1.56 1.16 0.99 | GFTLESYGIS | VIYSDGMRTFYKDSVK | GRTAGTFDS
0.68 n.d. 1.79 2.03 1.76 1.19 | HFTLESYGIS | VIYADGRRTFYGDSVK | GRAAGTFDS
0.24 -0.05 0.10 0.00 -0.24 -0.01 | GFDLNSYGIS | VIYSDGWRTFYSDSVK | GRTAGTFDS
0.95 1.07 0.86 0.75 0.83 0.87 | GFSLNSYGIS | VIYSDGRRTSYGDSVK | GRAAGTFDS
n.d. n.d. 2.40 n.d. n.d. n.d. | GDVLDEYGIS | VIYADGRRTAYTQDVK | GDKAGDLSV
-0.42 -0.20 -1.05 -0.60 -0.96 -0.60 | GFSLNSYGIS | VIYSDGRRTFYADSVK | GNEAGTFDS
-0.17 -0.38 -0.26 -0.46 -0.13 -0.16 | GFDLNEYGIS | VIYADGMRTAYADSVK | GEAAGTFDL
n.d. n.d. n.d. n.d. n.d. n.d. | GFNLDEYGIS | VIYADGQRTAYAQHVK | GGGGTDRGI
n.d. n.d. n.d. n.d. n.d. n.d. | GFTLNSYGIS | VIYSIGRRTFYGDSVK | GRAAGFFDS
-0.44 -0.68 -0.59 0.08 -0.75 -0.61 | GFDIDEYGIS | VIYADGRRTFYADSVK | GNNAGTFDV
-0.55 -0.87 -0.17 -0.56 -1.14 -0.12 | GFDLDEYGIS | VIYADGRRTAYADSVK | GNEAGTFDL
n.d. n.d. n.d. n.d. n.d. n.d. | GFTLDSYGIC | VWYSDGRRTFYGDSVK | GRAAGTALS
0.23 -0.06 -0.43 0.19 -0.14 0.47 | GFTLNEYGIS | VIYSDGRRTFYKDSVK | GKAAGTFDS
n.d. n.d. n.d. n.d. n.d. n.d. | GFTLDSYGIS | VIYVDMRRTFYGDSVK | GRAAGTALS
-0.45 -0.84 -0.69 -0.53 -0.94 -0.34 | GFDLDEYGIS | VIYADGKRTAYSDSVK | GETAGTFDL
n.d. n.d. 2.13 3.07 n.d. n.d. | GFTLNSYGIS | VIYSDGRRTQYGDSVK | GRAAGTFDK

Three control strains display no target. For all heavy chain designs, 1% of the pairings with them gave a signal, with a median of 2.08 and one signal in twenty below 0.84, so weak values seen in few replicates may be background.
Values of this round are not directly comparable with the first-round values of the same sequences.
The parent sequence was in this pool as ten entries: three were never detected, three once, and four in most replicates, with averages from 0.34 to 2.37.